Data as given in patent US20150302167A1, “SYSTEM AND METHOD FOR DEVELOPMENT OF THERAPEUTIC SOLUTIONS” (CELLWORKS RESEARCH INDIA PRIVATE LIMITED, priority 2012, published 2015).

Key:
[1] = Published clinical trial data of RA drugs: ACR20/ACR50/ACR70 response, drug vs placebo; assay type: in vivo, human
Text: In another embodiment, American College of Rheumatoid (ACR) scoring system and DAS28 scoring system are used to determine the extent of improvement in the RA disease symptoms on treatment with a drug.
In another embodiment, the ACR scoring system involves three main scores: ACR20 score pertaining to 20% improvement in the disease, ACR50 score pertaining to 50% improvement in the disease and ACR70 score pertaining to 70% improvement in the disease. Clinically, the calculation of the ACR score is dependent on inputs from a patient Health Assessment Questionnaire (HAQ) and analysis of the percentage improvement in the RA disease phenotypes. […]

[2] = Type: Drug; published clinical trial data; cited from earlier work
[3] = Type: Diff. (drug minus placebo), * significant difference > 15%

With ABATACEPT the “ACR20 Diff.” value [1, 3] was 15.5%, the “ACR50 Diff.” value [1, 3] was 18* % and the “ACR70 Diff.” value [1, 3] was 12.1%. For the same sequence, the “Highest Significant Clinical Disease Remission Score” value ([1]; highest ACR level with significant difference > 15% over placebo) was “ACR50 (ACR50 score pertaining to 50% improvement in the disease)”, the ACR20 [2] was 60.8% and the ACR50 [2] was 45.3%. The ACR70 [2] was 17.6%.
